Data published in ChEMBL document CHEMBL4665786, “Cellular Target Proteome in Breast Cancer Cells of an Oplopane Sesquiterpenoid Isolated from Tussilago farfara” (J Nat Prod, 2020).

Legend:
[1] = target: T1, Peroxiredoxin-1 (Homo sapiens) (UniProt Q06830)
T1 sequence (whole entry): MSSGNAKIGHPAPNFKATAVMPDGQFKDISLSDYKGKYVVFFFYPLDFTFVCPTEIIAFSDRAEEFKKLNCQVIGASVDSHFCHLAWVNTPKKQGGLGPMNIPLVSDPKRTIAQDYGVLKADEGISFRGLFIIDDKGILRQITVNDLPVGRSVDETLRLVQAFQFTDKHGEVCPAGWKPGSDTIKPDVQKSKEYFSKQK

[2] = species: Homo sapiens
[3] = target: T1, Peroxiredoxin-1 (Homo sapiens); remark: listed apart in the source
[4] = species: Homo sapiens; remark: listed apart in the source

C=C1[C@H]2[C@@H](/C(=C/C)C(=O)[C@H]2OC(=O)C(C)CC)[C@H](C(C)C)C[C@H]1OC(=O)/C=C(\C)CC (some centres undefined)
Ka [1]: 2.15 10^4/M
Ka [2]: 3.94 10^4/M
deltaH [3]: -4.52 kcal/mol
deltaH [4]: -6.5 kcal/mol
